Assay results published in patent US4221782A (priority 1978, dated 1980).
“And” between values parts separate entries of the source, which are not always exact repeats. Equal entries are not always repeated. Where two headings read alike, the source gives them in different places.

Assays:
stickleback = experiment: Example 5: mortality of stickleback under the same conditions; details: same test conditions as sockeye
[1] = system: threespine stickleback and chinook salmon; experiment: Example 4: selectivity and safety indices, stickleback versus chinook salmon, artesian well water; details: for Safety index / Selectivity index: approximate
threespine stickleback [2] = experiment: Example 6: deactivators for azide, survival of stickleback in 12-hour bioassays; type: in vivo, Gasterosteus aculeatus; details: potassium azide 20 mg/l, no deactivator; 15 degrees Celsius
threespine stickleback [3] = details: for LC50 / LC100: potassium azide
sockeye [4] = system: sockeye
sockeye [5] = experiment: Example 2: mortality of sockeye, 96-hour bioassay, artesian well water; details: for concentration at which no mortality occurred in sockeye: 96-hour assay, artesian well water
[6] = system: threespine stickleback and steelhead; experiment: Example 1: selectivity and safety indices, stickleback versus steelhead; details: for Safety index LC0/LC100 / Selectivity index LC50/LC50: steelhead/stickleback, 10° C.
sockeye [7] = experiment: Mortality of sockeye with potassium azide and deactivator, ten-day observation; details: for mortality of sockeye: 5 mg/l potassium azide + deactivator; for mortality of salmon: 7 mg/l potassium azide and deactivator
steelhead = experiment: Example 1: mortality of steelhead exposed to potassium azide, 72-hour bioassay, artesian well water, 10° C.
threespine stickleback [8] = experiment: Example 1: mortality of threespine stickleback exposed to potassium azide, 72-hour bioassay, artesian well water, 10° C.; details: for percentage mortality of stickleback: 10° C., mg/l by line: b32 2.0, b33 3.0, b35 4.5, b36 7.0, b37 10.0
[9] = 72-hour assay, 10 degrees Celsius, artesian well water

Compound `[N-]=[N+]=[N-]` [sodium azide] has a mortality of stickleback (stickleback) of 100%, a Safety index ([1]; 5 C., 12 h) of 2 and a Selectivity index ([1]; 5 C., 12 h) of 14. For the same compound, the Safety index ([1]; 5 C., 24 h) was 2, the Selectivity index ([1]; 5 C., 24 h) was 13 and the Safety index ([1]; 5 C., 48 h) was 3. It also gave a Selectivity index ([1]; 5 C., 48 h) of 19, a Safety index ([1]; 5 C., 96 h) of 6 and a Selectivity index ([1]; 5 C., 96 h) of 23. For the same compound, the Safety index ([1]; 10 C., 12 h) was 3, the Selectivity index ([1]; 10 C., 12 h) was 9 and the Safety index ([1]; 10 C., 24 h) was 4. For the same compound, the Selectivity index ([1]; 10 C., 24 h) was 12, the Safety index ([1]; 10 C., 48 h) was 6 and the Selectivity index ([1]; 10 C., 48 h) was 27. The Safety index ([1]; 10 C., 96 h) was 5, the Selectivity index ([1]; 10 C., 96 h) was 27 and the Safety index ([1]; 15 C., 12 h) was 5. For the same compound, the Selectivity index ([1]; 15 C., 12 h) was 10, the Safety index ([1]; 15 C., 24 h) was 5 and the Selectivity index ([1]; 15 C., 24 h) was 15. It also gave a Safety index ([1]; 15 C., 48 h) of 4, a Selectivity index ([1]; 15 C., 48 h) of 25 and a Safety index ([1]; 15 C., 96 h) of 5. The Selectivity index ([1]; 15 C., 96 h) was 14 and the “selectivity and safety indices for chinook versus stickleback compared with sockeye and steelhead” value ([1]; in vivo) was “correspondingly greater”.

potassium azide was tested, and the Survival time (threespine stickleback [2]) was 2.3 h, the “percentage mortality of stickleback” value (threespine stickleback [3]; 15 C, 96 h, mg/l by line: b111 1.0, b112 2.0, b113 2.5, b115 3.0, b117 5.0, b118 7.0, 5760 min) was 85% and 100% and the “concentration at which 100% mortality of stickleback was achieved” value (threespine stickleback [3]; 96-hour assay, 5, 10, and 15 degrees Celsius, artesian well water) was 2 mg/L. The LC100 of stickleback (threespine stickleback [3]; artesian well water, similar experimental conditions (96-hour, 15 degrees Celsius)) was 2.00 mg/L, the LC50 (threespine stickleback [3]; 5 C., 12 h) was 2.0 µg/mL and the LC100 (threespine stickleback [3]; 5 C., 12 h) was 7.0 mg/L. For the same compound, the LC50 (threespine stickleback [3]; 5 C., 24 h) was 1.5 µg/mL, the LC100 (threespine stickleback [3]; 5 C., 24 h) was 5.0 mg/L and the LC50 (threespine stickleback [3]; 5 C., 48 h) was 1.0 µg/mL. It also gave an LC100 (threespine stickleback [3]; 5 C., 48 h) of 4.0 mg/L, an LC50 (threespine stickleback [3]; 5 C., 96 h) of 0.8 µg/mL and an LC100 (threespine stickleback [3]; 5 C., 96 h) of 2.0 mg/L. It also gave an LC50 (threespine stickleback [3]; 10 C., 12 h) of 3.5 µg/mL, an LC100 (threespine stickleback [3]; 10 C., 12 h) of 6.0 mg/L and an LC50 (threespine stickleback [3]; 10 C., 24 h) of 2.5 µg/mL. It also gave an LC100 (threespine stickleback [3]; 10 C., 24 h) of 5.0 mg/L, an LC50 (threespine stickleback [3]; 10 C., 48 h) of 1.0 µg/mL and an LC100 (threespine stickleback [3]; 10 C., 48 h) of 3.0 mg/L. For the same compound, the LC50 (threespine stickleback [3]; 10 C., 96 h) was 0.8 µg/mL, the LC100 (threespine stickleback [3]; 10 C., 96 h) was 2.0 mg/L and the LC50 (threespine stickleback [3]; 15 C., 12 h) was 3.0 µg/mL. The LC100 (threespine stickleback [3]; 15 C., 12 h) was 7.0 mg/L, the LC50 (threespine stickleback [3]; 15 C., 24 h) was 2.0 µg/mL and the LC100 (threespine stickleback [3]; 15 C., 24 h) was 5.0 mg/L. For the same compound, the LC50 (threespine stickleback [3]; 15 C., 48 h) was 1.0 µg/mL, the LC100 (threespine stickleback [3]; 15 C., 48 h) was 5.0 mg/L and the LC50 (threespine stickleback [3]; 15 C., 96 h) was 0.9 µg/mL. The LC100 (threespine stickleback [3]; 15 C., 96 h) was 2.0 mg/L, the “Death time of 10 fish, Mean” value (sockeye [4]; 5 C., 20 mg/l potassium azide) was 5.7 h and the “Death time of 10 fish, Range” value (sockeye [4]; 5 C., 20 mg/l potassium azide) was 3 to 23 h. For the same compound, the “Death time of 10 fish, Mean” value (sockeye [4]; 15 C., 16 mg/l potassium azide) was 19.5 h, the “Death time of 10 fish, Range” value (sockeye [4]; 15 C., 16 mg/l potassium azide) was 9 to 35 h and the “mean times of death at about equal equivalents” value (sockeye [4]; potassium or sodium azide) was “about equal mean times of death”. For the same compound, the “concentration at which no mortality occurred in sockeye” value (sockeye [5]; 10 degrees Celsius) was 6000 ng/mL, the “concentration at which no mortality occurred in sockeye” value (sockeye [5]; 15 degrees Celsius) was 4000 ng/mL and the “concentration at which no mortalities of sockeye would occur” value (sockeye [5]; extrapolation of the 5 degrees Celsius data) was 4000 ng/mL. It also gave a Safety index LC0/LC100 ([6]; 12 h) of 7, a Selectivity index LC50/LC50 ([6]; 12 h) of 10 and a Safety index LC0/LC100 ([6]; 24 h) of 5. It also gave a Selectivity index LC50/LC50 ([6]; 24 h) of 10, a Safety index LC0/LC100 ([6]; 36 h) of 5 and a Selectivity index LC50/LC50 ([6]; 36 h) of 7. For the same compound, the Safety index LC0/LC100 ([6]; 48 h) was 5, the Selectivity index LC50/LC50 ([6]; 48 h) was 7 and the Safety index LC0/LC100 ([6]; 72 h) was 2. The Selectivity index LC50/LC50 ([6]; 72 h) was 5, the selective lethality ([6]; stickleback versus steelhead) was “selectively lethal to stickleback at concentrations nonlethal to steelhead” and the mortality of sockeye (sockeye [7]; 6 days) was “no sockeye in the series died”. For the same compound, the mortality of sockeye (sockeye [7]; 10 days) was 40%, the mortality of salmon (sockeye [7]; 4 days) was “no salmon died” and the mortality of salmon (sockeye [7]; 10 days) was 84%. The “lethal long term effects” value (sockeye [7]; some concentration less than 5 mg/l with subsequent deactivator) was “no lethal long term effects”, the “concentration at which no mortality occurred in steelhead” value (steelhead; [9]) was “below 4.5 mg/l” and the “percentage mortality of steelhead” value (steelhead; 12 h, 10° C., mg/l by line: b39 4.5, b41 10.0, b42 14.0, b43 20.0) was 0%. The “concentration at which 100% mortality of stickleback was achieved” value (threespine stickleback [8]; [9]) was 2 mg/L, the “percentage mortality of stickleback” value (threespine stickleback [8]; 12 h, 720 min) was 90% and 100% and the “percentage mortality of stickleback” value (threespine stickleback [8]; 24 h) was 100%. For the same compound, the “percentage mortality of stickleback” value (threespine stickleback [8]; 36 h) was 100%, the “percentage mortality of stickleback” value (threespine stickleback [8]; 48 h) was 100% and the “percentage mortality of stickleback” value (threespine stickleback [8]; 72 h) was 100%.
